From US20260242759A1, “GQ/11 Protein Peptidomimetics” (Vrije Universiteit Brussel, priority 2022, published 2026)

Tested on: HEK293 cells overexpressing the ghrelin receptor
Conditions: SulfoCy5-labeled peptides at 5 and 10 μM, 3 h 45 min, 37° C.

Substance	cell internalization (remaining fluorescence, words)
H-C(SulfoCy5)-Ahx-KKKFAc[PraVKDAzk]ILQLNLKEYNLV-OH [SBL-GQ-21]	almost no internalization
H-C(SulfoCy5)-Ahx-RRRRFAc[PraVKDAzk]ILQLNLKEYNLV-OH [SBL-GQ-22]	little internalization capacity
H-C(SulfoCy5)-Ahx-RRWWRRWRRFAc[PraVKDAzk]ILQLNLKEYNLV-OH [SBL-GQ-24]	highest capacity to cross the cell membrane
